This assay has as its target human NK2 receptor (Homo sapiens, UniProt P21452). Description: Neurokinin A (NKA) Receptor-binding Assay (Test A). The settings on record: 3H-NKA binding; human NK2 receptor expressed in Mouse Erythroleukemia (MEL) cells; initial use of assay. An excerpt:
Neurokinin A (NKA) Receptor-binding Assay (Test A)

Amino acid sequences for entries named in this document (tags omitted).
UniProt P21452, whole entry: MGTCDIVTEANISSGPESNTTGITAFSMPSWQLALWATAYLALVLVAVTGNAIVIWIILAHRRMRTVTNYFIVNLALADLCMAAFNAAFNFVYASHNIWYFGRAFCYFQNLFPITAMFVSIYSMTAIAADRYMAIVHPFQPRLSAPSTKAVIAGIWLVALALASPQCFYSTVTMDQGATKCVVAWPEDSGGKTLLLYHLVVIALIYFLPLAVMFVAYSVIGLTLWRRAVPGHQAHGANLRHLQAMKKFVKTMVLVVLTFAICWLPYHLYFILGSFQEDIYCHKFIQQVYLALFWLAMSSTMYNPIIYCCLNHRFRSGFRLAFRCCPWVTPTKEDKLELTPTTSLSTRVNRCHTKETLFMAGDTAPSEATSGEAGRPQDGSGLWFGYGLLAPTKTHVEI

Compound `CSCC[C@@H]1NC(=O)[C@H](CC(C)C)NC(=O)CNC(=O)[C@H](Cc2ccccc2)NC(=O)[C@H](Cc2c[nH]c3ccccc23)NC(=O)[C@H](CCC(N)=O)NC1=O` returned an IC50 of 30 nM. In other words, the double-digit nanomolar range.

(Values after US5635509A, “Piperidine derivatives useful as neurokinin antagonists” (Zeneca Limited, priority 1994, dated 1997).)
